Earlier results in US7115571B1, “Retro-inverso peptides derived from interleukin-3” (Myelos Corporation, priority 2000, dated 2006).

Settings: intravenously injected

B1: IL-3: native cytokine; glycoprotein acting on hematopoietic target cells (protein, UniProt P08700 20-152, looked up)
Interleukin-3: APMTQTTPLKTSWVNCSNMIDEIITHLKQPPLPLLDFNNLNGEDQDILMENNLRRPNLEAFNRAVKSLQNASAIESILKNLLPCLPLATAAPTRHPIHIKDGDWNEFRRKLTFYLKTLENAQAQQTTLSLAIF
half-life: ~40 min
